# Test results from US5049685A, “Nuclear substituted salicylic acids and their salts” (Sanko Kaihatsu Kagaku Kenkyusho, priority 1988, dated 1991).
# Test: Solubility in toluene (four-stage evaluation)
# Format: physicochemical
substance,measurement,value
"zinc 3-methyl-5-(α, α-dimethylbenzyl)salicylate [(2) Zinc, reference compound]",Solubility in Toluene,Δ (solubility =not less than 5% to less than 20%)
